In patent publication US20210275686A1, “BINDER/ACTIVE AGENT CONJUGATES DIRECTED AGAINST CXCR5, HAVING ENZYMATICALLY CLEAVABLE LINKERS AND IMPROVED ACTIVITY PROFILE” (BAYER AKTIENGESELLSCHAFT, priority 2018, published 2021):

Test system: Caco-2 cells
Assay: Cell permeability flux assay using Caco-2 cells
Format: in vitro ADME
Settings: Caco-2, 2 h

Papp (B − A): 21.3 ×10⁻⁶ cm/s
Compound: CC(C)(C)[C@H](c1cc(-c2cc(F)ccc2F)cn1Cc1ccccc1)N(CCCN)C(=O)CO [Reference Example R1M, N-(3-Aminopropyl)-N-{(IR)-1-[1-benzyl-4-(2,5-difluorophenyl)-IH-pyrrol-2-yl]-2,2-dimethylpropyl}-2-hydroxyacetamide]
